Source: article PMC11645656, “MRGPRX4 mediates phospho-drug associated pruritus in a humanized mouse model” (Science translational medicine, 2024)

Amino acid sequences for entries named in this document (tags omitted).
UniProt Q96LA9, whole entry L83S: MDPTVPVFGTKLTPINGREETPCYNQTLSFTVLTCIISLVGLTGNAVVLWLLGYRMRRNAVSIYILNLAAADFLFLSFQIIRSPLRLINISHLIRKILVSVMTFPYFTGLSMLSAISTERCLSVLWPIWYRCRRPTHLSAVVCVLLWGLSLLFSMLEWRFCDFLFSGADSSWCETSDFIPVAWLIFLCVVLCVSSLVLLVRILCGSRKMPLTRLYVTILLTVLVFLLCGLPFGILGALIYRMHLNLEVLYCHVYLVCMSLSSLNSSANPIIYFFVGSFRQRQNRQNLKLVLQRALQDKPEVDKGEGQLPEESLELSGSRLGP

Biological target: T1, MRGPRX4 (S83) (Homo sapiens, UniProt Q96LA9, L83S)
T1 construct: expressed in transfected cells
Assay: EC50 determination, intracellular calcium mobilization in MRGPRX4 stably expressed HEK293 cells (FLIPR Calcium 5, Flexstation-3)
Type: cell-based

Question: How did the EC50 turn out when Dexamethasone palmitate was run?
Answer: 61 µM
